The chains behind the UniProt entries cited, without tags or fusion partners.
UniProt P08183, whole entry: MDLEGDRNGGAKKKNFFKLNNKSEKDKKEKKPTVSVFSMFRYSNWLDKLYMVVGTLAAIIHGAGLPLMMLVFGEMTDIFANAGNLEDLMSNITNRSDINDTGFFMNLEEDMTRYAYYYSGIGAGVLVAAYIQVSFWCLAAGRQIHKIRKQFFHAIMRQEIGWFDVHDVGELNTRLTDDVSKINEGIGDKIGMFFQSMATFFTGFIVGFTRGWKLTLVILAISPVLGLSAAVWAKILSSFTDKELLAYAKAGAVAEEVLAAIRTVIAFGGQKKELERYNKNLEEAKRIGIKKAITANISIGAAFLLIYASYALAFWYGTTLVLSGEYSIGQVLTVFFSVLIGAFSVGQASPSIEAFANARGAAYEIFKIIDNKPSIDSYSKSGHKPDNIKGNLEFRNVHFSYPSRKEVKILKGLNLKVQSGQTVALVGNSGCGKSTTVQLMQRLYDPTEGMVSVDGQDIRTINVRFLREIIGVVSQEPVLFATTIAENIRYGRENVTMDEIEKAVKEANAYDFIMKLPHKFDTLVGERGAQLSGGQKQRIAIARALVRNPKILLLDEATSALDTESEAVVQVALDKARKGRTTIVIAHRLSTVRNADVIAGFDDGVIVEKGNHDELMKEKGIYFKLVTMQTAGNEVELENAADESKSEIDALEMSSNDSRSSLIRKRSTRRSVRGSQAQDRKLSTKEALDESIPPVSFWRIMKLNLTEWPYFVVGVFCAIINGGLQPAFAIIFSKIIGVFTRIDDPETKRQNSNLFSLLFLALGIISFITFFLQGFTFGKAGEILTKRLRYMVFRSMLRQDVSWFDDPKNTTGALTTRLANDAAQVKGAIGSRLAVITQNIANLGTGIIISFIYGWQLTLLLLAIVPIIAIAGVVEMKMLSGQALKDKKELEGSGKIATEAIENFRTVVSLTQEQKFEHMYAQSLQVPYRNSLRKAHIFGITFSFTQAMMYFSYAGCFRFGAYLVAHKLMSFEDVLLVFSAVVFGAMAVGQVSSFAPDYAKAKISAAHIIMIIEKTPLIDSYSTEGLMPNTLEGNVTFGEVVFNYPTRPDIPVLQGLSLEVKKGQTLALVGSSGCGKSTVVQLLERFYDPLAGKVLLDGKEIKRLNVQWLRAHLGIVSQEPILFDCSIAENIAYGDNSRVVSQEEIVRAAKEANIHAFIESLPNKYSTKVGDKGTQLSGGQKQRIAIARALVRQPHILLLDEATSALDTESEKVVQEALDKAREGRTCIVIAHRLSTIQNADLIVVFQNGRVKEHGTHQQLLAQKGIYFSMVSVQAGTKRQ

In article PMC7749613, “Characterization of the cellular transport mechanisms for the anti‐cachexia candidate compound TCMCB07” (Journal of Cachexia, Sarcopenia and Muscle, 2020):

Target: T1, human P‐gp (ABCB1, MDR1) (Homo sapiens, UniProt P08183)
T1 construct: host or cells: MDCKII
Experiment: Transepithelial transport of digoxin (±TCMCB07) in MDCKII/MDR1 cells
Format: in vitro ADME
Details: MDCKII/MDR1, 500 μM TCMCB07; negative = efflux ratio increased
Protocol: Cells were then washed three times, each with 0.5 mL pre‐warmed HBSS buffer. For transepithelial transport in the A to B direction, 0.3 mL of drug‐containing buffer pH 7.4 (HBSS, 25 mM HEPES, 0.5% DMSO, 38 nM [^3H]digoxin or 21 nM [^3H]rosuvastatin, and 1.75 μM [^14C]mannitol) was added to the apical chamber, and 1.0 mL of blank buffer (i.e. no drug) was added to the basolateral chamber. For transepithelial transport in the B to A direction, 1.0 mL of drug‐containing buffer pH 7.4 (HBSS, 25 mM HEPES, 0.5% DMSO, 38 nM [^3H]digoxin or [^3H]rosuvastatin, and 1.75 μM [^14C]mannitol) was added to the basolateral chamber, and 0.3 mL of blank buffer (i.e. no drug) was added to the apical chamber. The cells were then incubated for various times up to 60 min. […]
The permeability of digoxin and rosuvastatin (prototypical substrates for MDR1 and BCRP, respectively) was determined by the following ^18 : (4) Papp=CR·VR/CD^o·A·∆Δt, where Papp is the apparent permeability, CR is the concentration of substrate in the receiver chamber, CD^o is the concentration of substrate in the donor chamber at time zero, VR is the volume of buffer in the receiver chamber, A is the surface area of the insert filter membrane, and ∆t is the time over which permeability is measured. […] The % change in digoxin ER, due to TCMCB07, can then be quantified as: (6) %ChangeER=100·ERDig−ERDig+T/ERDig=100·1−ERDig+T/ERDig.

- % Change ER of digoxin, 100·(1−ERDig+T/ERDig): −152%
Compound: CCCC[C@H](NC(C)=O)C(=O)N[C@H]1CC(=O)NCCCC[C@@H](C(=O)N[C@@H](C(=O)N2CCC[C@@H]2C(N)=O)C(C)C)NC(=O)[C@H](Cc2c[nH]c3ccccc23)NC(=O)[C@H](CCCN=C(N)N)NC(=O)[C@@H](Cc2ccc3ccccc3c2)NC(=O)[C@@H]2CCCN2C1=O [TCMCB07, Ac‐Nle‐c[Asp‐Pro‐dNal2′‐Arg‐Trp‐Lys]‐dVal‐dPro‐NH2]
